## Antibody variant affinities, Ab-95 light chain, assay 2

Values reported by Engelhart et al. 2022, doi:10.1038/s41597-022-01779-4 (FLAb copy).

Binding partner: SARS-CoV-2 spike HR2 peptide, sequence PDVDLGDISGINAS.

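The starting antibody came from a phage panning campaign against this peptide. AAYL52 was designed without a model: most single CDR substitutions and a random sample of double and triple ones. The assay is AlphaSeq: two haploid yeast populations carry antibody and antigen on their surface. Pairs that bind mate more often; barcode pairs of the diploids are counted by sequencing. The ratio of observed to expected reads was calibrated, replicate by replicate, on BCL2-family standards whose Kd was known from biolayer interferometry. The assay was run in three technical replicates.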

Ab-95 is the parent antibody, in scFv form: VH, then three GGGGS repeats, then VL. The heavy chain is unchanged in all variants.
VH: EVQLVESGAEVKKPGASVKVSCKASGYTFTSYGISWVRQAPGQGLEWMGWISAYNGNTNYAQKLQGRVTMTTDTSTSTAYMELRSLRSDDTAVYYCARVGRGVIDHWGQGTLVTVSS
VL: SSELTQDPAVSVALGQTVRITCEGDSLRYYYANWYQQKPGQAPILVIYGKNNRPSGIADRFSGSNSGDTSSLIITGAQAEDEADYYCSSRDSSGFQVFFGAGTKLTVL

Each variant is given by its three light chain CDRs, as the data file delimits them; those of the parent are EGDSLRYYYAN, GKNNRPS, SSRDSSGFQVF. Affinities are written as log10 Kd with Kd in nM; a lower number is a better binder. An entry "ND" has no value in the source: the pair was not observed among the diploids in that replicate. This suggests poor binding but is not conclusive. As a blank, each scFv also met three strains without target: over library AAYL52, 28% of these pairings were detected, typically at 3.91 and seldom below 2.90. Also given: how often the same scFv was detected with the empty control strains, with their mean in brackets.

CDR-L1	CDR-L2	CDR-L3	log10 Kd (nM) by replicate	control signals
EGDSLRYYYAN	GKNGRYS	SSRDSSGFQVL	2.76 5.66 4.22	2 of 9 (3.75)
EGDSLDYYYAN	GKNNRPS	SLRDSDGFQVF	ND 4.20 ND	4 of 9 (3.12)
EGDSLRGYRAN	GKNNRPS	SSRDSSGFEVF	2.16 2.50 1.78	1 of 9 (4.45)
HGDSLRYYYAC	GKNNRPS	SSRDSSGFQVG	2.81 5.05 3.10	1 of 9 (3.96)
EGDSLRYDYAN	SKNNRPS	SSRDSSVFQVF	2.65 2.94 1.38	6 of 9 (3.55)
EGDSLRYYYAN	GKRQRPS	SSRDSSGFQVF	2.63 ND 3.71	0 of 9
EGDSLRLYYAN	HKNNRTS	SSRDSSGFQVF	ND ND ND	1 of 9 (2.98)
EGDSLRYYYSN	GKNNRPS	SSRFSSGFQVF	3.32 4.59 ND	4 of 9 (4.22)
EGFSLRYYYAN	KKNNRPH	SSRDSSGFQVF	4.88 4.44 ND	2 of 9 (4.57)
EGDSLRYYYAV	GKNNRPQ	SYRDSSGFQVF	ND ND ND	1 of 9 (3.60)
WGDSLRYYYAC	GKNNRPS	SSRDSWGFQVF	2.78 2.57 2.92	5 of 9 (4.29)
EGDSLRYYYMN	GKNNRPS	SSRDSSGCQVF	ND ND ND	1 of 9 (5.11)
EGDSLRYYYNN	GKNGRPS	SSRDSSGWQVF	3.64 4.43 ND	5 of 9 (3.74)
EGDSLRYYYAN	GKNNRRS	SSRDLSGFNVF	3.98 3.78 3.97	5 of 9 (3.76)
EMDSLRYYYAN	GPNNRPS	SSRDSSGFQVE	2.45 3.07 3.02	3 of 9 (4.07)
EGDSLRCYYAN	GKNNRPS	SSRDSSGVWVF	ND 3.71 4.22	5 of 9 (3.59)
EGDSLRYYYAN	GKNMRPS	SSIDSSGFQVA	2.65 2.85 1.87	2 of 9 (3.59)
EGDELAYYCAN	GKNNRPS	SSRDSSGFQVF	3.16 2.54 3.11	5 of 9 (4.31)
EGDSLRYYYAN	GKNNFPS	KSRDSSGFPVF	3.90 ND ND	2 of 9 (4.36)
EGDSLRYYYAL	GKNNRPS	SQRDSSGFQLF	3.35 ND ND	3 of 9 (3.25)
EGDSRRYYYAN	GKNNRPS	SSRVSSGHQVF	ND 5.93 ND	3 of 9 (4.26)
EGDVLRYYYKN	GKNNRPS	SSRDSSDFQVF	4.17 3.43 3.53	6 of 9 (4.37)
EGDTLRYYYAN	GKNNRPS	SSRDSSGDQVK	3.66 3.44 ND	1 of 9 (3.06)
EGDSLRCYPAN	GKNNRPR	SSRDSSGFQVF	ND 3.26 3.13	1 of 9 (3.80)
EGSSLRYYYAN	GKNNRPS	SSRDSSGFKVF	3.40 2.84 2.25	4 of 9 (4.25)
EGDILRYYYAN	GKYNRWS	SSRDSSGFQVF	ND ND ND	1 of 9 (5.41)
EGDSLRYEYAN	GKNNRPS	SCRDSSGFPVF	1.66 1.54 1.01	5 of 9 (3.99)
EGDILRYYYAN	GKNNRLS	SSRDSSGFQVF	ND ND ND	1 of 9 (3.57)
EGTSLRYYYAN	GKNNRPS	SARDSSGSQVF	2.24 2.05 1.83	6 of 9 (3.62)
EGGSLRYYYAN	GKNNVPS	SSRDSSGYQVF	3.41 2.84 4.13	2 of 9 (4.63)
EGDSLRYYYAN	GKNRRPS	SWRDSCGFQVF	4.33 3.95 4.26	6 of 9 (4.36)
WGDSLRYYYAN	GKNNRPS	SSRDSFGAQVF	4.08 2.61 3.06	5 of 9 (4.38)
EGDSLRYYYAN	GKNNRPS	SSRDESFFQVY	3.16 ND ND	0 of 9
EGDSLRYYYAN	GKNNRPS	YNCDSSGFQVF	2.53 4.30 4.40	0 of 9
EGESLRYYYAN	EKNHRPS	SSRDSSGFQVF	3.29 2.72 4.13	7 of 9 (3.82)
EGDSWRYYYAN	GKNNRPC	SSRDSSGFQVF	ND 3.40 ND	4 of 9 (3.93)
EGDQLRYTYAN	GINNRPS	SSRDSSGFQVF	2.29 2.56 2.91	1 of 9 (3.68)
EGDSLRYYHAP	GKNNRPS	SSRDSSGKQVF	ND 3.95 ND	4 of 9 (3.24)

For reference, 6 entries of the list once more:

CDR-L1	CDR-L2	CDR-L3	log10 Kd (nM) by replicate	control signals
EGDSLRCYYAN	GKNNRPS	SSRDSSGVWVF	ND 3.71 4.22	5 of 9 (3.59)
EGDSLRGYRAN	GKNNRPS	SSRDSSGFEVF	2.16 2.50 1.78	1 of 9 (4.45)
EGDSLRYDYAN	SKNNRPS	SSRDSSVFQVF	2.65 2.94 1.38	6 of 9 (3.55)
EGDSLRYYYAN	GKNNRPS	SSRDESFFQVY	3.16 ND ND	0 of 9
EGTSLRYYYAN	GKNNRPS	SARDSSGSQVF	2.24 2.05 1.83	6 of 9 (3.62)
WGDSLRYYYAN	GKNNRPS	SSRDSFGAQVF	4.08 2.61 3.06	5 of 9 (4.38)